Molecular target: T1, EMC2-8 complex (recombinant EMC2 with recombinant EMC8) (human, UniProt Q15006 1-297; O43402 1-210)
T1 sequence 1: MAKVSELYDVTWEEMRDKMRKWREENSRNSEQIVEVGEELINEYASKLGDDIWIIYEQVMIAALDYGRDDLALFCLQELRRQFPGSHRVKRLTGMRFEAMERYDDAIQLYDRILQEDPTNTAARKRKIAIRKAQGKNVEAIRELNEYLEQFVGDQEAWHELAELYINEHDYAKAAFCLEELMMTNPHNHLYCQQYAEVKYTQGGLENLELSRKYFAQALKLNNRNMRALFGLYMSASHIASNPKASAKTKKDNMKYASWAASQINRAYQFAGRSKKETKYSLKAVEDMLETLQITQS
T1 sequence 2: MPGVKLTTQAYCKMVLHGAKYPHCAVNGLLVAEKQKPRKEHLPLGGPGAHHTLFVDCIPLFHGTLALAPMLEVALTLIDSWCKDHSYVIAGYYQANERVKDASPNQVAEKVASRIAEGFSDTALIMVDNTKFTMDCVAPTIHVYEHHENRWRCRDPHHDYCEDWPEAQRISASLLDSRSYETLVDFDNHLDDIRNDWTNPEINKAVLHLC
Test: co-IP

B1: EMC5 C-terminus (5-CT; residues 66-131)-3xFLAG (domain or fragment, human, UniProt Q8N4V1 66-131, looked up)
chain: EFKDMDATSELKNKTFDTLRNHPSFYVFNHRGRVLFRPSDTANSSNQDALSSNTSLKLRKLESLRR
binding result: binds
